The target in assay [1] is HiBit-BRM fusion protein (Homo sapiens, UniProt P51531). Kind of assay: HiBiT-BRM cell-based degradation assay (Nano-Glo HiBiT Lytic Detection, 24 h). As to the method:
Procedure: A stable HeLa cell line expressing HiBiT-BRM was generated. On day 0, 5000 cells were seeded in 40 μL of media into each well of 384-well cell culture plates. On day 1, cells were treated with 120 nL DMSO or 120 nL of 3-fold serially DMSO-diluted compounds (10 points in duplicate with 30 μM as final top dose). Subsequently plates were incubated for 24 h in a standard tissue culture incubator and equilibrated at room temperature for 15 minutes. Nano-Glo HiBiT Lytic Detection System (Promega N3050) reagent was freshly prepared and 20 ul was added to each well. Upon addition of this LgBit-containing reagent, the HiBiT and LgBiT proteins associate to form the luminescent NanoBiT luciferase. The plates were shaken for 10 minutes at room temperature and the bioluminescence read using an EnVision plate reader (PerkinElmer).
The degradation % was calculated using the following formula: % degradation=100%−100%×(LumSample−LumLC)/(LumHC−LumLC). DMSO treated cells are employed as High Control (HC) and 2 μM of a known BRM/BRG1 degrader standard treated cells are employed as Low Control (LC).

The chains behind the UniProt entries cited, without tags or fusion partners.
UniProt P51531, whole entry: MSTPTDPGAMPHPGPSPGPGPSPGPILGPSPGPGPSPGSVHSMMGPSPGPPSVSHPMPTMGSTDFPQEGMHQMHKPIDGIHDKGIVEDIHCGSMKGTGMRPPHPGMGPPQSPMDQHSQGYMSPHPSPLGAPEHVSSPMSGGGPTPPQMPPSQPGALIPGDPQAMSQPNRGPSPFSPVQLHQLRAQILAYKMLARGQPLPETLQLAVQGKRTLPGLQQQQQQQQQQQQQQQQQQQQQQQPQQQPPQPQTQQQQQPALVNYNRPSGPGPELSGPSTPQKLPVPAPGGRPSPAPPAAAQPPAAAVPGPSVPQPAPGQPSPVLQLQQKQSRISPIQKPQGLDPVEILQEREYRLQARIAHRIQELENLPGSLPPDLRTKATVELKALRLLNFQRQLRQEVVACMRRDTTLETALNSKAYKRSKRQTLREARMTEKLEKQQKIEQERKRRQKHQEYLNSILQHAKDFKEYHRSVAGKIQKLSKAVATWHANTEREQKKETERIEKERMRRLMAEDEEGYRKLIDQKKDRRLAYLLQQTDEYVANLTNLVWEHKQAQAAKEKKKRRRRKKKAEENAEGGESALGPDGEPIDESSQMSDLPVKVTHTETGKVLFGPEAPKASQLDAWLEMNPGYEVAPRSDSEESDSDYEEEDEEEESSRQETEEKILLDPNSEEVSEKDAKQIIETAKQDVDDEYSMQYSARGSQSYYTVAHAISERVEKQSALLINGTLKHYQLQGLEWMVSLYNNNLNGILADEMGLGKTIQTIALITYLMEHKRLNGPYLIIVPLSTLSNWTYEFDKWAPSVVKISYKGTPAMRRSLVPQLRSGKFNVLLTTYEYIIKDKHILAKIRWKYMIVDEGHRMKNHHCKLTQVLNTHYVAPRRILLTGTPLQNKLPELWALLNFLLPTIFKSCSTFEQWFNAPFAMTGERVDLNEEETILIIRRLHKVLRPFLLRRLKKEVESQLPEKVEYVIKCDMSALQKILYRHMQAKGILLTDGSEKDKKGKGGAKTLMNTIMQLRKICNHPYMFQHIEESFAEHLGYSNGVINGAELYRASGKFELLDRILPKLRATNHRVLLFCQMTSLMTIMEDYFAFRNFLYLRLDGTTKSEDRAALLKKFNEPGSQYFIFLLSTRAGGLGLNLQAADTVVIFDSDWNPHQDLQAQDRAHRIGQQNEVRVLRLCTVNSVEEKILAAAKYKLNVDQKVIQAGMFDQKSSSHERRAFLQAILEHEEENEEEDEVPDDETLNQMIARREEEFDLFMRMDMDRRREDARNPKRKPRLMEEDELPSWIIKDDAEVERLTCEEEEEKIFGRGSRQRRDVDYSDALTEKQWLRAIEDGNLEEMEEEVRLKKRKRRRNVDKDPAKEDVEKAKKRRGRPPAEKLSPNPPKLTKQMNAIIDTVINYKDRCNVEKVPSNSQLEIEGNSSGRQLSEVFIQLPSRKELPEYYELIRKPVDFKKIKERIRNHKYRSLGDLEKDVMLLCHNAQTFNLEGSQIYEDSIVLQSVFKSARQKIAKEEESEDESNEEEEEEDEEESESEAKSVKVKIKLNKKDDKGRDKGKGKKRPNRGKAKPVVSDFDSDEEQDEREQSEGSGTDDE
UniProt P51532, whole entry: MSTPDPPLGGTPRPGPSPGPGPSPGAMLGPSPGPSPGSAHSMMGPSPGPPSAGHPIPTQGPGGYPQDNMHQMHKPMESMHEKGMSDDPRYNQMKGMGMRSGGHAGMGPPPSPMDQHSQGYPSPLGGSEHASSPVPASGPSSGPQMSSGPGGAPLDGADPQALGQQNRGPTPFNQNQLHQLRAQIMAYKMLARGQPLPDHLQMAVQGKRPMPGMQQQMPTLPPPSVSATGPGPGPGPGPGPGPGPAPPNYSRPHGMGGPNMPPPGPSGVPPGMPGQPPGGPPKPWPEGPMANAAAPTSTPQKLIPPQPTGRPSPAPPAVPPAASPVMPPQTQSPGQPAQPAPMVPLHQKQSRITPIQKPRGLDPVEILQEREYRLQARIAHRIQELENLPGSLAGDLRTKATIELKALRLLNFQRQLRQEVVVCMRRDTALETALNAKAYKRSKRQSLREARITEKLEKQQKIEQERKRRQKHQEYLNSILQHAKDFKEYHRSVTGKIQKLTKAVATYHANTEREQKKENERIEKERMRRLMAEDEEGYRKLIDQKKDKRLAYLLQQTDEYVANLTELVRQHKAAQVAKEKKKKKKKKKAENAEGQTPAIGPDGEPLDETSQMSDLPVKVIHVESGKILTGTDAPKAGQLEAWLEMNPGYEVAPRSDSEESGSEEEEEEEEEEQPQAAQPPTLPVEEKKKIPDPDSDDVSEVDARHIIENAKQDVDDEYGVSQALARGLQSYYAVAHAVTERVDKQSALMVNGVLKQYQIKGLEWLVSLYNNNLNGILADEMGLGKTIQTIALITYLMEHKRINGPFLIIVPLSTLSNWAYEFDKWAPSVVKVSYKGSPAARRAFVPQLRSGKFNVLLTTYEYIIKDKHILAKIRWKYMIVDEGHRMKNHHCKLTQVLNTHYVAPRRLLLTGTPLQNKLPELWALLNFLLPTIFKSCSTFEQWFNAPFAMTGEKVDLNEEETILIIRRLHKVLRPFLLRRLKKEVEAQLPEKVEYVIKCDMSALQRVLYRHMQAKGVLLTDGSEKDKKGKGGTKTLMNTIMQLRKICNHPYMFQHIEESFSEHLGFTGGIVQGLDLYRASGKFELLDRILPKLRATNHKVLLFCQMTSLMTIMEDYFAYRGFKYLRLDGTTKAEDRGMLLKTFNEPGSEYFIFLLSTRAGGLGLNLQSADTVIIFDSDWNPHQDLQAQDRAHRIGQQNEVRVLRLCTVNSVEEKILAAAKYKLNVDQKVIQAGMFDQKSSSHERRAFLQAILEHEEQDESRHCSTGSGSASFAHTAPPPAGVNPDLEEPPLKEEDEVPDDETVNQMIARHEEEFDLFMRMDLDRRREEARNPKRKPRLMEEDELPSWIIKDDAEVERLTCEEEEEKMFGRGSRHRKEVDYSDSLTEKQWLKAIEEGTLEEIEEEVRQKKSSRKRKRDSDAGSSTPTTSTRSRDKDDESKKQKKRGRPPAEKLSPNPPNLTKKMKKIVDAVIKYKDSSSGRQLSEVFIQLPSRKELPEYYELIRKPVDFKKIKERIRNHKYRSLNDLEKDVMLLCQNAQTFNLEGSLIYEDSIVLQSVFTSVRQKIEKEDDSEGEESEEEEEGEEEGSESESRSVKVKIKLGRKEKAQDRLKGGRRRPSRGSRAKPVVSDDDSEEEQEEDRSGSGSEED

Assay [2] has as its target HiBit-BRG1 fusion protein (Homo sapiens, UniProt P51532). Kind of assay: HiBiT-BRG1 cell-based degradation assay (Nano-Glo HiBiT Lytic Detection, 24 h).

Molecules are shown by their SMILES.

Consider `Cc1c(C(=O)NCC(=O)Nc2nc(-c3cccc(-c4ccnc(C5(C(=O)NCCCCCCCCNc6ccc7c(c6)C(=O)N(C6CCC(=O)NC6=O)C7=O)CC5)c4)c3)cs2)cn(S(C)(=O)=O)c1C` (stereo not shown), for which the “BRM HiBit Degradation Maximum measured” value in assay [1] (HeLa cells expressing HiBiT-BRM, top dose 30 μM) is on record as “C (‘C’ = Maximum degradation <50%)”. Also, the half-inhibitory concentration (IC50) was greater than 10000 nM in assay [1] (read-out: BRM HiBit Degradation IC50, HeLa cells expressing HiBiT-BRM); 100 to 1000 nM in assay [2] (read-out: BRG1 HiBit Degradation IC50, HeLa cells expressing HiBit-BRG1 and LgBit). For the same compound, in assay [2] (HeLa cells expressing HiBit-BRG1 and LgBit, top dose 30 μM), the “BRG1 HiBit Degradation Maximum measured” value was “B (‘B’ = Maximum degradation ≥50% and ≤75%)”.

Values taken from US12662479B2 (Foghorn Therapeutics Inc., priority 2020, dated 2026).
